Measurements taken from article PMC11913275, “Targeting prostate cancer by new bispecific monocyte engager directed to prostate-specific membrane antigen” (PLOS One, 2025).

The chains behind the UniProt entries cited, without tags or fusion partners.
UniProt Q04609, whole entry: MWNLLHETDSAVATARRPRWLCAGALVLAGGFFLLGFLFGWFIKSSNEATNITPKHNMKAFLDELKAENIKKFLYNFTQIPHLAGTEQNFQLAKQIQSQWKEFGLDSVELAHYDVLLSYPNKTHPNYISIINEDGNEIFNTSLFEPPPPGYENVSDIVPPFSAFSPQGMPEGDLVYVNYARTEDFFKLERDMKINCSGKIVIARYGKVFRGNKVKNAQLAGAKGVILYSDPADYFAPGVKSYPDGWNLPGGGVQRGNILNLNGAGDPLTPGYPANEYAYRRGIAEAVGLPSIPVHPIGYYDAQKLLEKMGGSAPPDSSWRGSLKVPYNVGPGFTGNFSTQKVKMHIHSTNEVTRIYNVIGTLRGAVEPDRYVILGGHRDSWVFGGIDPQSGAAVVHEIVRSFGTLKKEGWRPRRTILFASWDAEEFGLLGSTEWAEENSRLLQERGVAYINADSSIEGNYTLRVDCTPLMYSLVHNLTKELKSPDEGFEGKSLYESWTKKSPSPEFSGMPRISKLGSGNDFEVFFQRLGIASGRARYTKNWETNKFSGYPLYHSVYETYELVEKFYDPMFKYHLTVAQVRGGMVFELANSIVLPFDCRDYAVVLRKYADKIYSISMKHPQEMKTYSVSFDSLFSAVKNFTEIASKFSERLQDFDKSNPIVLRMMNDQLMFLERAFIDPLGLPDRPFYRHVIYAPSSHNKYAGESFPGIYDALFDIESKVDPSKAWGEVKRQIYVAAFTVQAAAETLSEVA

Molecular target: T1, Prostate-specific membrane antigen (Homo sapiens, UniProt Q04609)
T1 construct: also called PSMA; glutamate carboxypeptidase II; source: on PSMA-positive PC3-PIP cells
Experiment: flow cytometry on cells; PSMA-positive PC3-PIP cells (PC3 as negative control) mixed with 5-fold dilution series of the construct, 20 μL, 15 min at 4°C; 5D3-CP33 detected by anti-Strep tag antibody and Alexa Fluor 647 secondary, ch5D3 by anti-human Alexa Fluor 647 secondary; KD by non-linear regression
Conditions: one partner purified

B1: chimeric 5D3 (5D3 variable murine domains fused to constant domains of human IgG1) (antibody, V domains shown)
VH: EVQLQQSGPELVKPGASVKISCKTSGYAFNTSWMNWVKQRPGQGLEWIGRIYPGDGDTNYNGKFKGKATLTADKSSSTAHMHLSSLTSVDSAVYFCARGEWYLYYFDYWGQGTTLTVSS
VL: DIQMTQTTSSLSASLGDRVTISCSASQGINNFLTWYQQKPDGTLKLLIYYTSSLHSGVPSRFSGSGSGTDYSLTIRNLEPEDIATYYCQQYSNLPFTFGGGTKVEIK
- Kd: 1.6 nM
